Data published in patent US9775890B2, “Factor Xa inhibitor used with liver-derived progenitor cells” (UNIVERSITÉ CATHOLIQUE DE LOUVAIN, priority 2012, dated 2017).

Tested on: cells with PCA
Assay: Analogous thromboelastometry experiments with different direct factor Xa inhibitors plus direct thrombin inhibitor
Assay type: cell-based
Details: present tense
Experimental: Measurements were performed on a ROTEM® delta analyser (Pentapharm, Munich, Germany). ROTEM® assesses the kinetics and quality of clot formation and clot lysis in real-time. The clotting time (CT) is defined as the period of time from the start of the analysis until the start of clot formation, normally until the 2 mm amplitude is reached. The clot formation time is defined as the period until the 20 mm amplitude is reached. The alpha angle is defined as the angle between the centre line and a tangent to the curve through the 2 mm amplitude point, which is the end of the CT. The maximum amplitude of the curve is defined as the maximum clot firmness. The maximum of lysis represents the maximum fibrinolysis detected during the measurement. We focused on CT.
Briefly, after a short rest period, 300 μl of whole blood was pipetted into a cup pre-warmed at 37° C. Suspended cells were subsequently added to whole blood (5×10exp5 cells if no specification). Twenty μl of trigger reagent containing tissue factor (TF) (Innovin, Siemens, Marburg, Germany. Final dilution 1:17000/0.35 pM) diluted in Owren buffer (Siemens, Marburg, Germany) was then added to the cell-blood mixture followed by the necessary addition of 20 μl of 0.2 M CaCl2. After calcium addition, measurements started automatically. The procoagulant activity (PCA) of cells was also determined without addition of Innovin. […]

SMILES: CN1CCc2nc(C(=O)N[C@@H]3C[C@@H](C(=O)N(C)C)CC[C@@H]3NC(=O)C(=O)Nc3ccc(Cl)cn3)sc2C1 [edoxaban, N′-(5-chloropyridin-2-yl)-N-[(1S,2R,4S)-4-(dimethylcarbamoyl)-2-[(5-methyl-6,7-dihydro-4H-[1,3]thiazolo[5,4-c]pyridine-2-carbonyl)amino]cyclohexyl]oxamide]
- Modulation of PCA of cells by concomitant use of the direct factor Xa inhibitor with a direct thrombin inhibitor (hirudin or bivalirudin): able to modulate PCA
